# Experiments:
# Chains of the proteins cited; added tags and fusions are not shown. Residues count along the entry.
# UniProt P22723, 39-474 limits assumed: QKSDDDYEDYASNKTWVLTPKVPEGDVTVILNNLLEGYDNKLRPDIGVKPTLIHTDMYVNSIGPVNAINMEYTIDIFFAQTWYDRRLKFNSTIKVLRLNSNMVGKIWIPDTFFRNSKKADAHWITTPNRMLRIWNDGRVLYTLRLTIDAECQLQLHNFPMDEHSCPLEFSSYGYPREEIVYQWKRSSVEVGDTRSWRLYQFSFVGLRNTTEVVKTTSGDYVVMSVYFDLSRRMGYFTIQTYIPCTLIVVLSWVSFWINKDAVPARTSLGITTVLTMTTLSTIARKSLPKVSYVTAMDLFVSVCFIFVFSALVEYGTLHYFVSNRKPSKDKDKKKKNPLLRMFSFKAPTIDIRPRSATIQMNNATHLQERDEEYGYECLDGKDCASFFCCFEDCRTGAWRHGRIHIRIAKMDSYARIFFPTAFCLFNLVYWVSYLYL
# UniProt Q8BHJ7, 32-463 limits assumed: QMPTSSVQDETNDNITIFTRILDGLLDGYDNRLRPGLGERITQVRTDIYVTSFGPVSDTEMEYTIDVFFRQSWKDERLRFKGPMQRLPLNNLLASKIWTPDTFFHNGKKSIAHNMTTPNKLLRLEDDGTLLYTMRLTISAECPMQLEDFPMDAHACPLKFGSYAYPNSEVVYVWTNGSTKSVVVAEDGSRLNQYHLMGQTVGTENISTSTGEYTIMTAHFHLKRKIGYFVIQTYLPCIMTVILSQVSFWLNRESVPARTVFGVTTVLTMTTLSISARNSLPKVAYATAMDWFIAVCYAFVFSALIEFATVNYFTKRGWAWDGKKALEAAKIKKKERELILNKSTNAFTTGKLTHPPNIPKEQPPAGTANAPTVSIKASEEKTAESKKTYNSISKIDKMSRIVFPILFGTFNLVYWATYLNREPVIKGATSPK
# UniProt P63080, 26-473 partner limits assumed: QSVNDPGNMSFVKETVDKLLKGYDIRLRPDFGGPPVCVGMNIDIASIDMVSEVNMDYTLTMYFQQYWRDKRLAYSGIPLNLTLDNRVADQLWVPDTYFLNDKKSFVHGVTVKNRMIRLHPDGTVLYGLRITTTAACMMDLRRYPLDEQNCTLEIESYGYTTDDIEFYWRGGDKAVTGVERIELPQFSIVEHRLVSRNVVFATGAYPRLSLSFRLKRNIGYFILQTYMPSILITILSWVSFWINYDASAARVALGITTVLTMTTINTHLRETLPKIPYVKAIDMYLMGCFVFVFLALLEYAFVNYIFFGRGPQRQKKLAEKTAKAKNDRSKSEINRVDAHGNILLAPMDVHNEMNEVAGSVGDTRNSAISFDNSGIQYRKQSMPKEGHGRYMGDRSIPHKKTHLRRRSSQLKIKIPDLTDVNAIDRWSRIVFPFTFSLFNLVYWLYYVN
# [1] = tested on: GABAA receptors containing the α5 subunit; settings: cited from earlier work
# [2] = molecular target: GABAA receptor α5 subunit (Mus musculus, UniProt P22723+Q8BHJ7); assay: Reduction of IGABA by co-application of L-655708 in MSNs; assay type: cell-based
smiles,measurement,setting,value
CCOC(=O)c1ncn2c1[C@@H]1CCCN1C(=O)c1cc(OC)ccc1-2,"Selectivity for GABAA receptors containing the α5 subunit over those that contain α1, α2, α3 and α6",[1],50-100 times
same,Effect on IGABA amplitude,[2],small reduction of the IGABA amplitude
same,EC50,"[2]; read-out: EC50, GABA current density in the presence of L-655708",119 nM

# — publication PMC6316731 (Brain Sciences, 2018)
